# Laboratory results from paper PMC8372404 (Frontiers in Neuroscience, 2021).
# Tested on: Danio rerio
# Test: Novel tank test (NTT)
# Assay type: in vivo
# Settings: most informative dosage, Figure 2B
# Experimental: Control groups were treated in parallel with vehicle alone. For drug injection, the fish were anesthetized briefly by placing them in 10°C water. The vehicle controls were tested in parallel.
# Behavioral testing was initiated 10 min after drug injection, starting with the novel tank test (NTT), followed immediately thereafter by the light–dark box (LDB) and the social preference test (SPT). The NTT was adapted from [Maximino et al. (2013)] with the behavior video-recorded and the data processed using EthoVision XT14 (Noldus). The distance traveled, speed, number of visits to the bottom, middle and top thirds of the aquarium, respectively, and the times spent in each of these zones during the initial 5 min in the tank were recorded. […] The behavior in the LDB ([Maximino et al., 2011]) and SPT ([Parker et al., 2014]) was video recorded and processed using RealTimer (Open Science LCC, Russia). […] The time spent and the number of visits to the light and dark flanking zones and the latency to enter the lit zone were recorded during a 5-min session. […] For the SPT, the residence time and the number of visits to the three equally sized zones (near the shoal, in the center zone of the aquarium, and near the wall opposite to the shoal) were assessed during a 5-min session. […]
structure (smiles),measurement,value
CN1C(=O)CN=C(c2ccccc2)c2cc(Cl)ccc21 [Diazepam],"NTT, effect on total distance traveled vs vehicle",unaffected
